US10167292B2, “Benzodiazepines as bromodomain inhibitors” (Catalyst Therapeutics Pty Ltd, priority 2015, dated 2019)

Tests used:
MV4; 11 = experiment: Cell proliferation assay (CellTiter-Glo), MV4;11; format: cell-based; settings: Homo sapiens, MV4-11, 72 h, read-out: MV4; 11 IC50 (μM)
Method: (§1) The cells were prepared in the required fashion (suspension or adherent). The cells were initially washed once in the culture medium that they would be finally treated in. Following this 10 ml of the test medium was added and the cells. The mixture was pipetted gently several times.
(§2) The cells were counted and then the volume was spun down to the volume necessary for the total number of cells needed. The cells were then resuspended in the appropriate test medium to the desired concentration. In general, the final concentration of non-adherent cells was 2×10^5 cells/ml i.e. 10,000 cells per 50 μ1. Once the desired concentration had been reached, 50 µl of the cells were added to the appropriate wells and the cells were incubated for 72 h at 37° C.
(§3) CellTiter-Glo Luminescent Assay (Kit G7571—See Promega's Instruction Manual for Additional Details):
(§4) Both reagents were pre-warmed to RT. The buffer was thawed in a 37° C. water bath until it had just completely thawed. It was then left on a bench at RT for at least 30 min.
(§5) Following this the substrate and buffer were mixed together. To ensure that the substrate was dissolved, the mixture was inverted several times. […]
(§6) Afterwards 40 μL of the reagent was added to 100 μL of the culture medium. […] The luminescence could then be read using a luminescence plate reader.

HL-60 = experiment: Cell proliferation assay (CellTiter-Glo), HL-60; format: cell-based; settings: Homo sapiens, HL-60, 72 h, read-out: HL-60 IC50 (μM)
Method: as §1, §2, §3, §4, §5, §6

Cc1nnn2c1-c1ccc(-c3noc(=O)[nH]3)cc1N(c1ccc(Cl)cc1)CC2 [Example 49, 3-(7-(4-chlorophenyl)-1-methyl-6,7-dihydro-5H-benzo[f][1,2,3]triazolo[1,5-d][1,4]diazepin-9-yl)-1,2,4-oxadiazol-5(4H)-one]
IC50 (MV4; 11): < 1 µM
IC50 (HL-60): > 5 µM
